Experiment [1] has as its target T1, Histamine H1 receptor (Homo sapiens, UniProt P35367). As to the kind of experiment: Antagonist activity at histamine H1 receptor in human SK-N-SH cells assessed as reduction of histamine-induced intracellular calcium spike at phase 2 treated 20 to 30 seconds after histamine challenge. Format: functional, cell-based. The gist of the method:
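Fura-2-loaded SK-N-SH cells with endogenous H1 receptors. Compound was added after histamine (30 s in the example shown) and scored by its effect on the rate of Ca2+ removal during the later Phase 2 of the [Ca2+]i kinetics, read by spectrofluorometer. IC50 values came from concentration curves run in duplicate.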
Background: Calcium assays in cells follow changes in intracellular calcium, usually with a dye or a luminescent sensor.

By UniProt entry, the sequences of proteins in these tests, tags left out.
UniProt P35367, whole entry: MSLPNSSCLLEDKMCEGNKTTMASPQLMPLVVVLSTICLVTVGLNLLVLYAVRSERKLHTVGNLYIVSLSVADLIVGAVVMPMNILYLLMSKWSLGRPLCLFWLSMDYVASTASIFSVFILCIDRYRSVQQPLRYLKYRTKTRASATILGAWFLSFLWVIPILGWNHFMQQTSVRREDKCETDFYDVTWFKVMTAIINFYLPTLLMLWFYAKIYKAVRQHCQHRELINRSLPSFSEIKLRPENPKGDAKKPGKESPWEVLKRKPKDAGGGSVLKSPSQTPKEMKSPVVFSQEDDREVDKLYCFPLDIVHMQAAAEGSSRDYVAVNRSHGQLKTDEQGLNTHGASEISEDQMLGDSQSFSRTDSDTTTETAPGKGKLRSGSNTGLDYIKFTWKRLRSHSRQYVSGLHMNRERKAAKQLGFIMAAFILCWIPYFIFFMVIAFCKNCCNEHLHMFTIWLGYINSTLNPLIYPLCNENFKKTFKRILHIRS

For experiment [2], the target named is T1, Histamine H1 receptor. As to the kind of experiment: Antagonist activity at histamine H1 receptor in human SK-N-SH cells assessed as histamine-induced maximum intracellular calcium spike at phase 1 treated 15 to 20 seconds before histamine challenge.

For `Cc1ccc2c(c1)c1c(n2CCc2ccccc2)CCN(C)C1` [MARITUPIRDINE], the IC50 at Histamine H1 receptor [1] was 146 nM; at Histamine H1 receptor [2], 40 nM.

By IC50 is commonly meant the midpoint of a concentration-inhibition curve.

Source of the values: ChEMBL document CHEMBL1153163, “Synthesis and biological activity of 5-styryl and 5-phenethyl-substituted 2,3,4,5-tetrahydro-1H-pyrido[4,3-b]indoles” (Bioorg Med Chem Lett, 2010).
